The numbers were not newly measured in patent publication US5280015A, “2-substituted adenosines and 2-substituted adenosine 5'-carboxamides” (priority 1990, dated 1994), which cites them from elsewhere.

Sequences of proteins named here, by UniProt entry; tags and fusion partners are left off.
UniProt P30543, whole entry: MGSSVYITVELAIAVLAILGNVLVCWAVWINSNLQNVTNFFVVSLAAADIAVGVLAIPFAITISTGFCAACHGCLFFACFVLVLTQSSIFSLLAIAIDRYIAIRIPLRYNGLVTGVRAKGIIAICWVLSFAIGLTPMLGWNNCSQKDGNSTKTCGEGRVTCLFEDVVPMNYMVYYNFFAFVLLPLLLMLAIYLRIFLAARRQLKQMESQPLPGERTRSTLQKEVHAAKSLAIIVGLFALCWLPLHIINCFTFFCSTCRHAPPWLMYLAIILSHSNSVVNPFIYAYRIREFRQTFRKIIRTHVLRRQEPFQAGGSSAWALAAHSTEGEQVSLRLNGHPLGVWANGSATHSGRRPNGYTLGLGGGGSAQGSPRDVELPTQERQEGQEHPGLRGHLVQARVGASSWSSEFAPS

For the data set, the target named is A2-adenosine receptors (Rattus norvegicus, UniProt P30543). The conditions noted are these: read-out: Ki, inhibition of binding of [3H]NECA at A2 receptors; cited from earlier work.

A word on the Ki: it is a measure of affinity in units of concentration, obtained from inhibition or displacement. Consider `C[C@H](Cc1ccccc1)Nc1ncnc2c1ncn2[C@@H]1O[C@H](CO)[C@@H](O)[C@H]1O` [R-PIA, N^6 -phenylisopropyladenosine, reference compound], for which the Ki was 120 nM.
